The text below walks through data of patent publication US20230406901A1 (JHM BIOPHARMACEUTICAL HANGZHOU, published 2023).

Chains of the proteins cited; added tags and fusions are not shown. Residues count along the entry.
UniProt P55899, 24-297 limits assumed, chain 1 of 2: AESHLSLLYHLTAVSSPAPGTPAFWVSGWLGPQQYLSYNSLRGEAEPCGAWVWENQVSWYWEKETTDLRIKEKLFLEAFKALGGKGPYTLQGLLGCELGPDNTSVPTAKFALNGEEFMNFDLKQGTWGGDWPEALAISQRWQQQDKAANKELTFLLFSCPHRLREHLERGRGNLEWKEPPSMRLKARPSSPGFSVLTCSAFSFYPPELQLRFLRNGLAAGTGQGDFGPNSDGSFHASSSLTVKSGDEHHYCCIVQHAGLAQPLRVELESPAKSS

In this assay the target is T1, human FcRn (human, UniProt P55899, in part; P61769, in part).
T1 construct: also called Fc receptor (FcRn)
Put plainly: SPR, CM5 chip, ligand coupled to chip, FcRn as analyte 46.875-6000 nM, pH 6.0, equilibrium fit.

B1: natural human IgG4 Fc (other, UniProt P01861-1 99-327, looked up)
chain: ESKYGPPCPSCPAPEFLGGPSVFLFPPKPKDTLMISRTPEVTCVVVDVSQEDPEVQFNWYVDGVEVHNAKTKPREEQFNSTYRVVSVLTVLHQDWLNGKEYKCKVSNKGLPSSIEKTISKAKGQPREPQVYTLPPSQEEMTKNQVSLTCLVKGFYPSDIAVEWESNGQPENNYKTTPPVLDSDGSFFLYSRLTVDKSRWQEGNVFSCSVMHEALHNHYTQKSLSLSLGK
notes: domain: Fc
Consider B1, for which binding was characterised by a dissociation constant (Kd) of 2560 nM.
